Values quoted from earlier work as cited in patent publication US10828372B2, “Compositions and methods for the inhibition of fibrosis” (WISCONSIN ALUMNI RESEARCH FOUNDATION, priority 2017, dated 2020).

Details: literature examples; cited from earlier work

PEG-IFN-α2b: literature example of a PEGylated protein with reduced activity
reduction of activity upon PEGylation: 3.6 fold
